Only a part is listed here, and it is no random draw. Some of these compounds have results that are not shown, active ones among them. Active and inactive are the calls of the source.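 How the source made its calls: active means mean replicate inhibition above about 25%, with every replicate also reaching it (limit read from the data, passing the limit was not always enough); inconclusive means only one of those two criteria met; inactive means neither criterion met.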
biological target: Protein disulfide-isomerase A6 (Homo sapiens) (UniProt Q15084); test: inhibitors of ERp5-driven insulin aggregation, primary screen, biochemical, turbidity, absorbance 650 nm, single point (AID 651711); details: 90 min, at 9.99 µM, hits give high values

By UniProt entry, the sequences of proteins in these tests, tags left out.
UniProt Q15084, whole entry: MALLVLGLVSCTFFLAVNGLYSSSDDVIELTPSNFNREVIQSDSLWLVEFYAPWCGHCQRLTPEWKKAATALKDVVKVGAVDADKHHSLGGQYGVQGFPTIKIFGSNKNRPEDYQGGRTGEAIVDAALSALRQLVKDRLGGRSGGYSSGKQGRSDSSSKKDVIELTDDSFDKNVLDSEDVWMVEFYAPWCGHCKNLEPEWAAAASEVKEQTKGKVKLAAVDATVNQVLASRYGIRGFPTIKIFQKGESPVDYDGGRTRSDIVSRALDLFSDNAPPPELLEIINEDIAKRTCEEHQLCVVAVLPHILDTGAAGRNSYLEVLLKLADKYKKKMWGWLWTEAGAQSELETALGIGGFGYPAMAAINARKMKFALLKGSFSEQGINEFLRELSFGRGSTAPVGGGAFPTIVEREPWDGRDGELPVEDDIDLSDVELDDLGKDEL

Row | SMILES | inhibition
1 | COc1cc(C(=O)NCC2(N(C)C)CCCCC2)c([N+](=O)[O-])cc1OC | inactive: 2.68%
2 | CN(C)C1(CNC(=O)c2ccc(Br)cc2)CCCCC1 | inactive: 2.99%
3 | O=C(NCC1(N2CCCCC2)CCCCC1)c1cccc(Cl)c1 | inactive: -0.658%
4 | COc1cccc(C(=O)NCC2(N3CCCCC3)CCCCC2)c1 | inactive: 2.36%
5 | COc1ccc(Cl)cc1C(=O)NCC1(N(C)C)CCCCC1 | inactive: -2.5%
6 | CC(C)Oc1ccc(C(=O)NCC2(N(C)C)CCCCC2)cc1 | inactive: -0.491%
7 | O=C(OCCN1CCCC1)C(O)(c1ccccc1)c1ccccc1 | inactive: 9.42%
8 | COc1ccc(Br)c(C(=O)NCC2(N3CCCCC3)CCCCC2)c1 | inactive: 0.82%
9 | C=C(C)C#CC(O)(C(=O)OC1CCN(C)CC1)c1ccccc1 (configuration not stated) | inactive: -5.4%
10 | CN1[C@@H]2CC[C@H]1CC(OC(=O)C(O)(c1ccccc1)c1ccccc1)C2 (some centres not stated) | inactive: 0.972%
11 | O=C(NCC1(N2CCCCC2)CCCCC1)c1cc([N+](=O)[O-])ccc1Cl | inactive: -4.43%
12 | Cc1ccc(C(=O)NCC2(N3CCCCC3)CCCCC2)cc1 | inactive: 0.336%
13 | CCN(CC)CC(C)C(C)OC(=O)C(O)(c1ccccc1)c1ccccc1 (configuration not stated) | inactive: 4.7%
14 | COc1cc(SC)ccc1C(=O)NCC1(N(C)C)CCCCC1 | inactive: 1.28%
15 | Cc1ccccc1C(=O)NCC1(N2CCCCC2)CCCCC1 | inactive: -3.81%
16 | CN(C)C1CCCC1OC(=O)C(O)(c1ccccc1)c1ccccc1 (configuration not stated) | inactive: -1.54%
17 | CN(C)c1ccc(C(=O)NCC2(N(C)C)CCCCC2)cc1 | inactive: 1.28%
18 | Cc1cc(C(=O)NCC2(N3CCCCC3)CCCCC2)ccc1[N+](=O)[O-] | inactive: -0.975%
19 | O=C(NCC1(N2CCCCC2)CCCCC1)c1cccc(Br)c1 | inactive: 6.85%
20 | COc1ccc(C(=O)NCC2(N(C)C)CCCCC2)cc1 | inactive: 3.7%
21 | C=CCN1CCN(CCOC(=O)C(O)(c2ccccc2)c2ccccc2)CC1 | inactive: -5.47%
22 | O=C(NCC1(N2CCCCC2)CCCCC1)c1cc(F)c(F)cc1Cl | inactive: -0.967%
